The substances below were run on NCCCC[C@H](N)C(=O)O (assay: purified protein). Settings: 100 mM Bis-Tris-HCl pH 7.0, O2 as co-substrate.
Substance AncLLysO (synthetic construct; Y518A) has a Km of 4100 ± 300 µM, a kcat of 1.4 s⁻¹ and a kcat/Km of 340 M⁻¹ s⁻¹. Work on AncLLysO (synthetic construct; Y518F) yielded a Km of 200 ± 30 µM, a kcat of 9.3 s⁻¹ and a kcat/Km of 46500 M⁻¹ s⁻¹. Work on AncLLysO (synthetic construct) yielded a Km of 300 ± 30 µM, a kcat of 21.7 s⁻¹ and a kcat/Km of 72300 M⁻¹ s⁻¹. AncLLysO (synthetic construct; Y256F) gave a Km of 600 ± 80 µM, a kcat of 15 s⁻¹ and a kcat/Km of 25000 M⁻¹ s⁻¹. In the case of AncLLysO (synthetic construct; Y255A), the Km is reported as 4400 ± 300 µM, the kcat is reported as 0.21 s⁻¹ and the kcat/Km is reported as 50 M⁻¹ s⁻¹. Substance AncLLysO (synthetic construct; G253P) has a Km of 11300 ± 1300 µM, a kcat of 1.1 s⁻¹ and a kcat/Km of 90 M⁻¹ s⁻¹. AncLLysO (synthetic construct; Y255F) was tested, and the Km was 150 ± 20 µM, the kcat was 3.4 s⁻¹ and the kcat/Km was 22600 M⁻¹ s⁻¹. AncLLysO (synthetic construct; G253A) was tested, and the Km was 1700 ± 300 µM, the kcat was 10.4 s⁻¹ and the kcat/Km was 6100 M⁻¹ s⁻¹. For AncLLysO (synthetic construct; Y256A), the Km was 3000 ± 500 µM, the kcat was 6 s⁻¹ and the kcat/Km was 2000 M⁻¹ s⁻¹. For AncLLysO (synthetic construct; Y270F), the Km was 1000 ± 200 µM, the kcat was 13.5 s⁻¹ and the kcat/Km was 13500 M⁻¹ s⁻¹.
